Biological target: recombinant β-lactamase (TEM-1 expressed in E. coli) (Escherichia coli, UniProt P62593)
Assay: Nitrocefin hydrolysis by recombinant β-lactamase (Abs482)
Settings: 1 nM β-lactamase, 100 µM nitrocefin in MH-medium, Abs482, Fig. S6b

Amino acid sequences for entries named in this document (tags omitted). Residues count along the entry.
UniProt P62593, 24-286 limits assumed: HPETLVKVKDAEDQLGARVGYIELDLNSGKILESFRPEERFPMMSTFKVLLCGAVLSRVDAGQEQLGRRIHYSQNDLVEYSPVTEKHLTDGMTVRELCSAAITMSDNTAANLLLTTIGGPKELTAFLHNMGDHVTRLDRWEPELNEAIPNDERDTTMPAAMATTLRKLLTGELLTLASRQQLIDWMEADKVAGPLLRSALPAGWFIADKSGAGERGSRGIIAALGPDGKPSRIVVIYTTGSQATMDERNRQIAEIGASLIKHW

O=C(Cc1cccs1)N[C@@H]1C(=O)N2C(C(=O)O)=C(/C=C/c3ccc([N+](=O)[O-])cc3[N+](=O)[O-])CS[C@H]12 [nitrocefin]
time to full hydrolysis: about 20 min
